Measurements taken from ChEMBL document CHEMBL3885881, “DrugMatrix”.

Columns and labels:
Rattus norvegicus [1] = organism: Rattus norvegicus; assay: DrugMatrix - Regimen: Daily Repeat; type: toxicity, organism-based, Sprague-Dawley; design: regimen Daily Repeat, gender Male, age 6-8 weeks; conditions: in vivo
Rattus norvegicus [2] = organism: Rattus norvegicus; type: toxicity, organism-based, Sprague-Dawley; conditions: in vivo, sc, 24 h, route mini-PUMP - SUBCUTANEOUS, time 1 day, vehicle 100 % SALINE
[3] = iv, 0 mg/kg, 72 h, tissue Plasma, dose level Control, time 3 day, vehicle 100 % SALINE
[4] = iv, 0 mg/kg, 120 h, tissue Plasma, dose level Control, time 5 day, vehicle 100 % SALINE
[5] = po, 0 mg/kg, 72 h, tissue Blood, route oral GAVAGE, dose level Control, time 3 day, vehicle .5 % CMC
[6] = po, 0 mg/kg, 120 h, tissue Blood, route oral GAVAGE, dose level Control, time 5 day, vehicle .5 % CMC
[7] = po, 3 mg/kg, 72 h, tissue Blood, route oral GAVAGE, dose level Low, time 3 day, vehicle .5 % CMC
[8] = po, 3 mg/kg, 120 h, tissue Blood, route oral GAVAGE, dose level Low, time 5 day, vehicle .5 % CMC
[9] = ip, 0 mg/kg, […], tissue Plasma, route intraperitoneal, dose level Control, time 28 day, vehicle 100 % SALINE
[10] = […], tissue Blood, dose 0.77 mg/Kg, dose level High
[11] = […], tissue Plasma, dose 0.77 mg/Kg, dose level High
[12] = sc, 0 mg/kg, 72 h, tissue Blood, route mini-PUMP - SUBCUTANEOUS, dose level Control, time 3 day, vehicle 100 % SALINE
[13] = sc, 0 mg/kg, 72 h, tissue Plasma, route mini-PUMP - SUBCUTANEOUS, dose level Control, time 3 day, vehicle 100 % SALINE
[14] = sc, 0 mg/kg, 120 h, tissue Blood, route mini-PUMP - SUBCUTANEOUS, dose level Control, time 5 day, vehicle 100 % SALINE
[15] = sc, 0 mg/kg, 120 h, tissue Plasma, route mini-PUMP - SUBCUTANEOUS, dose level Control, time 5 day, vehicle 100 % SALINE
[16] = sc, 0 mg/kg, […], tissue Blood, route mini-PUMP - SUBCUTANEOUS, dose level Control, time 14 day, vehicle 100 % SALINE
[17] = sc, 0 mg/kg, […], tissue Plasma, route mini-PUMP - SUBCUTANEOUS, dose level Control, time 14 day, vehicle 100 % SALINE
[18] = sc, […], 72 h, tissue Blood, route mini-PUMP - SUBCUTANEOUS, dose 0.77 mg/Kg, dose level High, time 3 day, vehicle 100 % SALINE
[19] = sc, […], 72 h, tissue Plasma, route mini-PUMP - SUBCUTANEOUS, dose 0.77 mg/Kg, dose level High, time 3 day, vehicle 100 % SALINE
[20] = sc, […], 120 h, tissue Blood, route mini-PUMP - SUBCUTANEOUS, dose 0.77 mg/Kg, dose level High, time 5 day, vehicle 100 % SALINE
[21] = sc, […], 120 h, tissue Plasma, route mini-PUMP - SUBCUTANEOUS, dose 0.77 mg/Kg, dose level High, time 5 day, vehicle 100 % SALINE
[22] = ip, 0 mg/kg, […], tissue Plasma, route intraperitoneal, dose level Control, time 14 day, vehicle 100 % SALINE
[23] = ip, 0.5 mg/kg, […], tissue Plasma, route intraperitoneal, dose level High, time 28 day, vehicle 100 % SALINE
[24] = po, 250 mg/kg, 72 h, tissue Blood, route oral GAVAGE, dose level M1, time 3 day, vehicle .5 % CMC
[25] = po, 500 mg/kg, 72 h, tissue Blood, route oral GAVAGE, dose level High, time 3 day, vehicle .5 % CMC
[26] = po, 90 mg/kg, 72 h, tissue Plasma, route oral GAVAGE, dose level High, time 3 day, vehicle 100 % WATER

COc1cccc2c1C(=O)c1c(O)c3c(c(O)c1C2=O)C[C@@](O)(C(=O)CO)C[C@@H]3O[C@H]1C[C@H](N)[C@@H](O)[C@H](C)O1 [EPIRUBICIN]
POTASSIUM (Rattus norvegicus [1]; [3]): 6.68 MEQ/L
POTASSIUM (Rattus norvegicus [1]; [4]): 6.66 MEQ/L
POTASSIUM (Rattus norvegicus [1]; iv, […], 72 h, tissue Plasma, dose 0.27 mg/Kg, dose level Low, time 3 day, vehicle 100 % SALINE): 6.47 MEQ/L
POTASSIUM (Rattus norvegicus [1]; iv, […], 72 h, tissue Plasma, dose 2.7 mg/Kg, dose level High, time 3 day, vehicle 100 % SALINE): 6.52 MEQ/L
POTASSIUM (Rattus norvegicus [1]; iv, […], 120 h, tissue Plasma, dose 2.7 mg/Kg, dose level High, time 5 day, vehicle 100 % SALINE): 6.39 MEQ/L

NCCCC(O)(P(=O)(O)O)P(=O)(O)O [ALENDRONIC ACID]
HEMOGLOBIN (Rattus norvegicus [1]; [5]): 14.58 G/DL
HEMOGLOBIN (Rattus norvegicus [1]; [6]): 15.83 G/DL
HEMOGLOBIN (Rattus norvegicus [1]; [7]): 13.73 G/DL
HEMOGLOBIN (Rattus norvegicus [1]; [8]): 16.1 G/DL

CARBOPLATIN
CHLORIDE (Rattus norvegicus [1]; [9]): 105.4 MEQ/L
HEMOGLOBIN (Rattus norvegicus [1]; iv, 6 mg/kg, 120 h, tissue Blood, dose level Low, time 5 day, vehicle 100 % SALINE): 13.4 G/DL

CNCC(O)c1ccc(O)c(O)c1 (configuration not stated) [RACEPINEPHRINE]
HEMATOCRIT (Rattus norvegicus [2]; 0 mg/kg, tissue Blood, dose level Control): 34.52%
GLUCOSE (Rattus norvegicus [2]; 0 mg/kg, tissue Plasma, dose level Control): 179.83 mg/dL
EOSINOPHIL (Rattus norvegicus [2]; [10]): 0.33%
MONOCYTE (Rattus norvegicus [2]; [10]): 2%
ALANINE AMINOTRANSFERASE (Rattus norvegicus [2]; [11]): 51 u/L
ASPARTATE AMINOTRANSFERASE (Rattus norvegicus [2]; [11]): 89 u/L
CARBON DIOXIDE (Rattus norvegicus [2]; [11]): 28.33 mmol/L
HEMATOCRIT (Rattus norvegicus [1]; [12]): 36.95%
MONOCYTE (Rattus norvegicus [1]; [12]): 2%
NEUTROPHIL (Rattus norvegicus [1]; [12]): 10.33%
GLUCOSE (Rattus norvegicus [1]; [13]): 136.83 mg/dL
URIC ACID (Rattus norvegicus [1]; [13]): 1.4 mg/dL
HEMATOCRIT (Rattus norvegicus [1]; [14]): 36.22%
NEUTROPHIL (Rattus norvegicus [1]; [14]): 17.67%
CREATININE (Rattus norvegicus [1]; [15]): 0.16 mg/dL
GLUCOSE (Rattus norvegicus [1]; [15]): 152.67 mg/dL
TOTAL BILIRUBIN (Rattus norvegicus [1]; [15]): 0.17 mg/dL
URIC ACID (Rattus norvegicus [1]; [15]): 1.27 mg/dL
HEMATOCRIT (Rattus norvegicus [1]; [16]): 35.4%
MONOCYTE (Rattus norvegicus [1]; [16]): 2.17%
GLUCOSE (Rattus norvegicus [1]; [17]): 182.33 mg/dL
URIC ACID (Rattus norvegicus [1]; [17]): 1.38 mg/dL
EOSINOPHIL (Rattus norvegicus [1]; [18]): 0.33%
LYMPHOCYTE (Rattus norvegicus [1]; [18]): 85%
MONOCYTE (Rattus norvegicus [1]; [18]): 2%
NEUTROPHIL (Rattus norvegicus [1]; [18]): 12.67%
CREATININE (Rattus norvegicus [1]; [19]): 0.16 mg/dL
GLUCOSE (Rattus norvegicus [1]; [19]): 165.67 mg/dL
URIC ACID (Rattus norvegicus [1]; [19]): 1.97 mg/dL
HEMATOCRIT (Rattus norvegicus [1]; [20]): 35.43%
MONOCYTE (Rattus norvegicus [1]; [20]): 3%
NEUTROPHIL (Rattus norvegicus [1]; [20]): 22%
BLOOD UREA NITROGEN (Rattus norvegicus [1]; [21]): 13.67 mg/dL
CARBON DIOXIDE (Rattus norvegicus [1]; [21]): 28.33 mmol/L
CHLORIDE (Rattus norvegicus [1]; [21]): 102.67 MEQ/L
GLUCOSE (Rattus norvegicus [1]; [21]): 146.33 mg/dL

CISPLATIN
ALBUMIN (Rattus norvegicus [1]; [22]): 4.05 G/DL
URIC ACID (Rattus norvegicus [1]; [22]): 1.57 mg/dL
CHLORIDE (Rattus norvegicus [1]; [9]): 105.4 MEQ/L
ALBUMIN (Rattus norvegicus [1]; [23]): 3.73 G/DL
CHLORIDE (Rattus norvegicus [1]; [23]): 105.11 MEQ/L

CN1[C@@H]2CC[C@H]1C[C@@H](OC(=O)C(CO)c1ccccc1)C2 (some centres not stated) [ATROPINE]
MONOCYTE (Rattus norvegicus [1]; po, 0 mg/kg, 72 h, tissue Blood, route oral GAVAGE, dose level Control, time 3 day, vehicle 100 % WATER): 0.67%
MONOCYTE (Rattus norvegicus [1]; po, 0 mg/kg, 120 h, tissue Blood, route oral GAVAGE, dose level Control, time 5 day, vehicle 100 % WATER): 1.83%
MONOCYTE (Rattus norvegicus [1]; po, 94 mg/kg, 72 h, tissue Blood, route oral GAVAGE, dose level High, time 3 day, vehicle 100 % WATER): 0.33%
MONOCYTE (Rattus norvegicus [1]; po, 94 mg/kg, 120 h, tissue Blood, route oral GAVAGE, dose level High, time 5 day, vehicle 100 % WATER): 1%
MONOCYTE (Rattus norvegicus [1]; po, […], 120 h, tissue Blood, route oral GAVAGE, dose 2.3 mg/Kg, dose level Low, time 5 day, vehicle 100 % WATER): 1%

CN1CCN2c3ccccc3Cc3ccccc3C2C1 (configuration not stated) [MIANSERIN]
ERYTHROCYTE COUNT (Rattus norvegicus [1]; po, 10 mg/kg, 120 h, tissue Blood, route oral GAVAGE, dose level Low, time 5 day, […]): 5.73 x10E6/uL

CCN(CC)CCOc1ccc(/C(=C(/Cl)c2ccccc2)c2ccccc2)cc1 [ENCLOMIPHENE]
ABSOLUTE MONOCYTE (Rattus norvegicus [1]; [5]): 0 CELLS/uL
HEMOGLOBIN (Rattus norvegicus [1]; [5]): 13.45 G/DL
LEUKOCYTE COUNT (Rattus norvegicus [1]; [5]): 16.17 x10E3/uL
LIPASE (Rattus norvegicus [1]; po, 0 mg/kg, 72 h, tissue Plasma, route oral GAVAGE, dose level Control, time 3 day, vehicle .5 % CMC): 9.5 u/L
ABSOLUTE MONOCYTE (Rattus norvegicus [1]; [6]): 29.17 CELLS/uL
HEMOGLOBIN (Rattus norvegicus [1]; [6]): 13.4 G/DL
LIPASE (Rattus norvegicus [1]; po, 0 mg/kg, 120 h, tissue Plasma, route oral GAVAGE, dose level Control, time 5 day, vehicle .5 % CMC): 8.67 u/L
HEMOGLOBIN (Rattus norvegicus [1]; [7]): 14.2 G/DL
LIPASE (Rattus norvegicus [1]; po, 3 mg/kg, 72 h, tissue Plasma, route oral GAVAGE, dose level Low, time 3 day, vehicle .5 % CMC): 8.67 u/L
ABSOLUTE MONOCYTE (Rattus norvegicus [1]; [8]): 173.67 CELLS/uL
HEMOGLOBIN (Rattus norvegicus [1]; [8]): 14.97 G/DL
LIPASE (Rattus norvegicus [1]; po, 3 mg/kg, 120 h, tissue Plasma, route oral GAVAGE, dose level Low, time 5 day, vehicle .5 % CMC): 7.67 u/L
ABSOLUTE MONOCYTE (Rattus norvegicus [1]; [24]): 0 CELLS/uL
HEMOGLOBIN (Rattus norvegicus [1]; [24]): 15.4 G/DL
LIPASE (Rattus norvegicus [1]; po, 250 mg/kg, 72 h, tissue Plasma, route oral GAVAGE, dose level M1, time 3 day, vehicle .5 % CMC): 9 u/L
ABSOLUTE MONOCYTE (Rattus norvegicus [1]; po, 250 mg/kg, 120 h, tissue Blood, route oral GAVAGE, dose level M1, time 5 day, vehicle .5 % CMC): 0 CELLS/uL
LIPASE (Rattus norvegicus [1]; po, 250 mg/kg, 120 h, tissue Plasma, route oral GAVAGE, dose level M1, time 5 day, vehicle .5 % CMC): 7 u/L
ABSOLUTE MONOCYTE (Rattus norvegicus [1]; [25]): 282 CELLS/uL
HEMOGLOBIN (Rattus norvegicus [1]; [25]): 15.87 G/DL

STANNOUS FLUORIDE
NEUTROPHIL (Rattus norvegicus [1]; po, 9 mg/kg, 72 h, tissue Blood, route oral GAVAGE, dose level Low, time 3 day, vehicle 100 % WATER): 9.33%
NEUTROPHIL (Rattus norvegicus [1]; po, 9 mg/kg, 120 h, tissue Blood, route oral GAVAGE, dose level Low, time 5 day, vehicle 100 % WATER): 9.33%
CHLORIDE (Rattus norvegicus [1]; [26]): 105 MEQ/L
GLUCOSE (Rattus norvegicus [1]; [26]): 161.67 mg/dL

COc1cccc2c1C(=O)c1c(O)c3c(c(O)c1C2=O)C[C@@](O)(C(=O)CO)C[C@@H]3O[C@H]1C[C@H](N)[C@H](O)[C@H](C)O1 [DOXORUBICIN]
POTASSIUM (Rattus norvegicus [1]; [3]): 5.7 MEQ/L
POTASSIUM (Rattus norvegicus [1]; [4]): 5.45 MEQ/L
POTASSIUM (Rattus norvegicus [1]; iv, 3 mg/kg, 72 h, tissue Plasma, dose level High, time 3 day, vehicle 100 % SALINE): 5.61 MEQ/L
POTASSIUM (Rattus norvegicus [1]; iv, 3 mg/kg, 120 h, tissue Plasma, dose level High, time 5 day, vehicle 100 % SALINE): 5.07 MEQ/L
POTASSIUM (Rattus norvegicus [1]; iv, […], 72 h, tissue Plasma, dose 0.65 mg/Kg, dose level Low, time 3 day, vehicle 100 % SALINE): 5.89 MEQ/L
POTASSIUM (Rattus norvegicus [1]; iv, […], 120 h, tissue Plasma, dose 0.65 mg/Kg, dose level Low, time 5 day, vehicle 100 % SALINE): 5.17 MEQ/L
